Data: patent US10064954B2, “Polymer-cyclodextrin-lipid conjugates” (priority 2015, dated 2018)

Type: physicochemical
Method: 1% (w/v) of propofol was prepared in a saline based solution with different PEG-carbohydrate conjugates. Table 6 listed the minimum concentration of the conjugates required to solublize propofol as a solubility test reference.

Substance: cholesterolpropanediamine-β-cyclodextrin mPEG12
- Concentration (% w/v): 2.2 % w/v
